Values quoted from earlier work in patent US20100016365A1.
Some compounds may have been tested in ways that are not shown here.

Columns and labels:
[1] = considerable interpatient variability
[2] = Goromaru et al. 1984

| SMILES | elimination half-life [1] | unchanged drug excreted in the urine [2] [%] |
| --- | --- | --- |
| CCC(=O)N(c1ccccc1)C1(COC)CCN(CCc2cccs2)CC1 | about 3 hours |  |
| CCC(=O)N(c1ccccc1)C1CCN(CCc2ccccc2)CC1 |  | < 10 |
| CCC(=O)N(c1ccccc1)C1(COC)CCN(CCn2nnn(CC)c2=O)CC1 | about 1.5 hours |  |
